# Test results from PubChem BioAssay AID1415 (NMMLSC, 2008).
# By UniProt entry, the sequences of proteins in these tests, tags left out.
# UniProt P09471, whole entry, looked up: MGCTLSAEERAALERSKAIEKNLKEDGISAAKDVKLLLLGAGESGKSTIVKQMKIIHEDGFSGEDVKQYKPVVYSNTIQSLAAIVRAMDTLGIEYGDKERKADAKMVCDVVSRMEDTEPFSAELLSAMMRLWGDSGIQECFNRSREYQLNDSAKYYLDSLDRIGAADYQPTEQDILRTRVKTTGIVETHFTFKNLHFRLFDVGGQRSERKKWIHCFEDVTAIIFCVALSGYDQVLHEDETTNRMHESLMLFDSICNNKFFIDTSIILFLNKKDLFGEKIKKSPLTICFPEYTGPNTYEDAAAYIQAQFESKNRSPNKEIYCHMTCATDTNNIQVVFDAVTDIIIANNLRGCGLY
# This is a selection; strong and weak results do not stand in their true shares. Active and inactive are the calls of the source. No stated cut-off is given here; in the data, active means binding response below about 49% or above about 150%; inactive means in between.
# Target: Guanine nucleotide-binding protein G(o) subunit alpha (Homo sapiens) (UniProt P09471)
# Assay: RGS4-Galphao interaction inhibitors and enhancers – biochemical, multiplexed bead flow cytometry, primary screen (AID 1415);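 further: fluorescent Galphao activated with aluminum fluoride binding bead-coupled RGS4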
# Conditions: at 10 µM, actives lie on both sides
row,Structure (SMILES),binding response (% of control)
1,CCC(=O)N1C2C3N(C(=O)CC)C1C1N(C(=O)CC)C(C(N1C(=O)CC)N3C(=O)CC)N2C(=O)CC,inactive: 115%
2,COC(=O)c1cc2c(s1)N=C(c1ccccc1)N(C)P2(=O)N1CCOCC1 (centres undefined),inactive: 100%
3,Cc1ccc(OP(=O)(Nc2ccccn2)Oc2ccc(C)cc2)cc1,inactive: 101%
4,CC(=O)NC(SC(=S)N(CC(C)C)CC(C)C)C(Cl)(Cl)Cl (centres undefined),inactive: 106%
5,Cc1ccccc1OP(=O)(Nc1ccccn1)Oc1ccccc1C,inactive: 99.3%
6,O=c1c2cc([N+](=O)[O-])ccc2[nH]c2c([N+](=O)[O-])cc([N+](=O)[O-])cc12,inactive: 98.7%
7,CN(C)C(=O)Oc1noc2ccccc12,inactive: 96.5%
8,c1ccc(-c2nn[nH]n2)c(-c2nn[nH]n2)c1,inactive: 79.2%
9,CCOC(=O)NC(Sc1ccccc1)C(Cl)(Cl)Cl (centres undefined),inactive: 78.7%
10,Cc1ccc(NP(=O)(Oc2cccc(C)c2)Oc2cccc(C)c2)nc1,inactive: 101%
11,O=C(NC1CCS(=O)(=O)C1)NP(=S)(Oc1ccccc1)Oc1ccccc1 (centres undefined),inactive: 99.8%
12,CCNC(=S)/N=C(\N)N[N+](=O)[O-],inactive: 98.3%
13,C[C@H]1OP(=O)(Oc2ccccc2)C[C@@H]2O[C@@H]21 (some centres undefined),inactive: 102%
14,C[C@@H]1C=CCP(=O)(Oc2ccccc2)O1 (some centres undefined),inactive: 99.3%
15,CC(=O)Nc1ccc([As](=O)(O)O)c(O)c1,inactive: 106%
16,CC(=O)Nc1ccc(Oc2c([N+](=O)[O-])cc([N+](=O)[O-])cc2[N+](=O)[O-])cc1,inactive: 101%
17,O=P1(Nc2nc3ccc(Cl)cc3s2)COc2ccccc2O1 (centres undefined),inactive: 103%
18,CCOc1ccc(C2=NCC(CBr)S2)cc1 (centres undefined),inactive: 108%
19,CC(C)(C)C(=O)NC(Sc1ccccc1)C(Cl)(Cl)Cl (centres undefined),inactive: 94%
20,O=P(Nc1nccs1)(c1ccccc1)c1ccccc1,inactive: 98.5%
21,CC(C)C(=O)NC(Sc1ccccc1)C(Cl)(Cl)Cl (centres undefined),inactive: 104%
22,c1nnnn1CCn1cnnn1,inactive: 93.8%
23,O=[As](O)(c1ccccc1)c1ccc(O)cc1,inactive: 85.1%
24,O=[N+]([O-])c1ncn(CCn2cnc([N+](=O)[O-])n2)n1,inactive: 101%
25,CC(=O)NC(SC(=S)N(C)C)C(Cl)(Cl)Cl (centres undefined),inactive: 105%
26,O=C(OC1CN2CCC1CC2)c1cccc(Cl)c1 (centres undefined),inactive: 92.6%
27,C(Cc1nn[nH]n1)Cc1nn[nH]n1,inactive: 103%
28,Nc1ccc([As](=O)(O)c2ccc([N+](=O)[O-])cc2)cc1,inactive: 93.8%
29,O=P(Nc1ccccn1)(c1ccc(Br)cc1)c1ccc(Br)cc1,inactive: 88.4%
